From patent US20130143965A1, “MICROBI[…] AND STABLE SOLUTIONS OF GAMMA-HYDRO[…] FOR THE TREATMENT OF NARCOLEPSY” (Jazz Pharmaceuticals, Inc., priority 1998, published 2013)

Test: Solubility determination of calcium salt of gamma-hydroxybutyrate
Type: physicochemical
Experimental: • 1. Solubility determination: Little information is available about the solubility of this alternative salt of gamma-hydroxybutyrate and a determination of solubility was done in advance of efforts to prepare formulations for evaluation by stability and microbial challenge. Maximum solubility is evaluated for pH unadjusted solutions and within the pH range desired for this formulation (pH 6.0-8.0). If solubility is limited, the formulation will be changed to accommodate the solubility limitations. The preferred acidulent for this work is Malic acid. If acid is not compatible with the salt, then an alternative acid can be selected. • 2. Preparation: Method for preparation of alternative salt formulations: • a. The previously described method (Part A) is used for preparation of formulations of calcium gamma-hydroxybutyrate at the concentrations and specified pH determined by solubility experiments. • b. The final solutions were filtered through 10 μm filters and dispensed into 5 amber PET bottles with closures (provided by Orphan Medical, Inc.). Two bottles are used for microbial challenge studies and two bottles are placed on limited stability. The remaining bottles are retained for any additional studies at a future time: • 3. Testing: Formulations are tested as described above. • C. Reporting of Results: The results will be reported for the Stability and Microbial Challenge results in standard format as defined by the described Orphan Medical Development. Copies of HPLC chromatograms and any raw data from these studies will be provided with results. • D. Acceptance Criteria: Specific acceptance criteria for this study can be described analogous to those for sodium oxybate.

## calcium gamma-hydroxybutyrate [calcium salt of gamma-hydroxybutyrate]
500 mg/cc, pH 7.5, Malic acid as acidulant
  Appearance of the final solution: slightly yellow in color
500 mg/cc, pH adjusted to 6.0 with Malic acid
  solubility: limited
700 mg/cc, without pH adjustment
  pH of the solution at the limit of solubility: 8.4
pH 6.0, 25°
  Maxium Solubility: 500 mg/cc
pH 8.4 (unadjusted), 25°
  Maxium Solubility: 700 mg/cc
Without pH adjustment
  absolute limit of solubility: 700 mg/cc
